From patent publication US8143419B2, “Trisubstituted 1,2,4-triazoles” (Janssen Pharmaceutica N. V., priority 2006, dated 2012) come the findings set out here.

The chains behind the UniProt entries cited, without tags or fusion partners. Residues count along the entry.
UniProt P36544, 23-502 limits assumed: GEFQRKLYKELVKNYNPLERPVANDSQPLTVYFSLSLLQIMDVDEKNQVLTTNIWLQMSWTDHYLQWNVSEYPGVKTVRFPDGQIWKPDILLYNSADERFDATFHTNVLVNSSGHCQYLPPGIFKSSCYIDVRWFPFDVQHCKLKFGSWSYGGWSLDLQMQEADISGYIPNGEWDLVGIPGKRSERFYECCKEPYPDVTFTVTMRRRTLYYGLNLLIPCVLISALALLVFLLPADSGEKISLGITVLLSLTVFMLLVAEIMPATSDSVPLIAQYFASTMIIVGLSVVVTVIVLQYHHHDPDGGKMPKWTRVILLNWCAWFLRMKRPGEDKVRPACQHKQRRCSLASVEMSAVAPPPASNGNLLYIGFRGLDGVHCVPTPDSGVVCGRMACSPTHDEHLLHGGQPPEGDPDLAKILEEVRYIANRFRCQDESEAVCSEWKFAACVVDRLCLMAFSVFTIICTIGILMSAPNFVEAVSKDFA

In the assay the target is hα7-wt nAChR (Homo sapiens, UniProt P36544). Put plainly: Ca2+ flux imaging (FDSS) (Protocol B), PAM activity with choline as agonist. As for the experimental part:
• Hanks buffered saline solution (HBSS, Invitrogen, Belgium), supplemented with 10 mM HEPES (Invitrogen, Belgium), CaCl2 to a final concentration of 5 mM, 0.1% Bovine serum albumin (Sigma-Aldrich NV, Belgium). b) Calcium-Sensitive Dye—Fluo-4AM • Fluo-4AM (Molecular Probes, USA) was dissolved in DMSO containing 10% Pluronic acid (Molecular Probes, USA) to give a stock solution which was diluted in assay buffer supplemented with 5 mM probenicid (Sigma, Aldrich NV, Belgium) to give a final concentration of 2 μM. c) 384-Well Plates • Black 384 well plate black/clear plates, PDL pre-coated (Corning, Incorporated, USA) d) Calcium Flux Measurement
A Functional drug screening system (FDSS, Hamamatsu) was used to measure intracellular free-calcium flux signals. […]
PAM activity was detected in real time by applying the compounds to be tested to the loaded cells along with a α7 nicotinic receptor agonist during constant monitoring of cellular fluorescence in a FDSS. […]
A control response to choline was calculated on each plate from the difference in peak in fluorescence in wells receiving either choline or assay buffer alone. […] The compounds also have a potentiating effect on the response to choline when measured by whole-cell patch clamp electrophysiology in GH4C1 cells stably over-expressing the human wild-type α7 receptor.

As a reminder, the pEC50 is −log10 of the EC50, conventionally taken in molar units. Turning to `Cc1cc(C(=O)NCCn2nc(Nc3ccc(F)c(C(F)(F)F)c3)nc2-c2ccnc(Cl)c2)no1`, the “% efficacy” value is given as 735%. Also, the pEC50 ("<5" = no top plateau at maximal concentration) is recorded as 6.0.
